Source: paper PMC10987480, “Biological and mutational analyses of CXCR4–antagonist interactions and design of new antagonistic analogs” (Bioscience Reports, 2023)

The chains behind the UniProt entries cited, without tags or fusion partners.
UniProt P61073, whole entry: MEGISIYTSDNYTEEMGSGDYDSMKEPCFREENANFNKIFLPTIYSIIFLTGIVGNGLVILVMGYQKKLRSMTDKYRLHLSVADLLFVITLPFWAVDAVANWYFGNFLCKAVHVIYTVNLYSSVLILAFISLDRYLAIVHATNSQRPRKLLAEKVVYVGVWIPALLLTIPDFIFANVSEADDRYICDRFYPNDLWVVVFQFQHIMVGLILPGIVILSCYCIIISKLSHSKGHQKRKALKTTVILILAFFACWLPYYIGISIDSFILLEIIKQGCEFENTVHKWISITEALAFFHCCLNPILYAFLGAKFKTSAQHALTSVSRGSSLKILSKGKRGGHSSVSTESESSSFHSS

Biological target: CXCR4 (Homo sapiens, UniProt P61073)
Test: Competitive CXCR4 binding assay (12G5 antibody probe), wild-type CXCR4 transfected CHO cells
Design: expressed in transfected cells
Conditions: 250 ng/ml 12G5, 40 min on ice, FITC second antibody, mean ± S.E.M. of at least three independent experiments, SEM, read-out: IC50 (nM), inhibition of 12G5 binding to CXCR4
Method: The CXCR4-specific antibody, 12G5 was used as a probe for the competitive CXCR4 binding assay to evaluate the binding activity of CXCR4 antagonists.
Figure 1 Competitive CXCR4 binding curves of eleven CXCR4 antagonists The CXCR4 transfected CHO cells were incubated with different concentrations of antagonists and 250 ng/ml 12G5 antibody. The CXCR4-binding 12G5 antibody was recognized by FITC-conjugated anti-IgG second antibody. The cells treated with only second antibody were used as a negative control (0%) while cells treated with both 12G5 antibody and second antibody were used as a positive control (100%). Cells treated with CXCR4 antagonists were calculated in percentage relative to the positive and negative controls. The data were averages of at least three independent experiments and shown as mean ± standard error of the mean (S.E.M.).
The procedure for the CXCR4 competitive binding experiments was published previously. […] The fluorescence intensity was measured for excitation at 485 nm and emission at 535 nm using multimode plate reader (PerkinElmer). The IC50 values were calculated using graphpad Prism 7. […]

NCCCCN(Cc1nc2ccccc2[nH]1)[C@H]1CCCc2cccnc21 [AMD11070]
IC50: 15.6 ± 7.6 nM
